Experimental data taken from patent US8283291B2, “Herbicidal composition” (Kumiai Chemical Industry Co., Ltd., priority 2006, dated 2012).

Experiments:
[1] = test system: corn (ZEAMX); assay: Test 1 on herbicidal effects against weeds and phytotoxicity by upland soil treatment; type: in vivo; settings: 50 gai/ha, 28th day
Description: (§1) In a plastic pot of 14 cm in length×23 cm in width×8 cm in depth, upland soil was filled, and seeds of soybean (GLXMA), corn (ZEAMX), Ipomoea lacunosa L. (IPOLA) and velvetleaf (ABUTH) were sown and covered with soil. […] Thereafter, cultivation was carried out in a greenhouse, and on the 28th day after the treatment, the herbicidal effects and phytotoxicity were examined in accordance with the standards as identified in Table 15.

[2] = test system: soybean (GLXMA); assay: as above; type: in vivo; settings: 50 gai/ha, 28th day
Description: as §1

CC(C)C1(C)N=C(c2nc3ccccc3cc2C(=O)O)NC1=O (centres unmarked) [Imazaquin]
phytotoxicity ZEAMX [1]: 6 (Herbicidal effect or phytotoxicity of at least 60% and less than 70%) | phytotoxicity GLXMA [2]: 0 (Herbicidal effect or phytotoxicity of at least 0% and less than 10%)
